Test results from patent US20220409657A1, “INSTRUCTIONS FOR COMPOSITION AND SENSITIVITY” (Azura Ophthalmics Ltd., priority 2020, published 2022).

What was measured:
[1] = taken by mouth; cited from earlier work
human subjects = details: one of the ophthalmic studies
Description: In a clinical study three different concentrations were used; 0.1 wt. %, (10 subjects) 0.5 wt. % (12 subjects) and 1 wt. % (26 subjects).

[2] = SeS2 lotion; cited from earlier work

Row | Substance | oral dose that may be toxic [1] [μg per day] | phototoxicity effect, concentrations at which observed (human subjects) | systemic toxicity after topical application to damaged skin [2]
1 | Selenium | > 400 | – | –
2 | selenium disulfide [SeS2] | – | at least as low as about 0.5 wt. % and 1 wt. % | reported to cause systemic toxicity
